Earlier results as cited in patent EP0716679B1, “METHOD OF CLEANING VINYL SURFACES BY MEANS OF MILDLY ACIDIC HARD SURFACE CLEANING COMPOSITIONS CONTAINING AMINE OXIDE DETERGENT SURFACTANTS” (THE PROCTER & GAMBLE COMPANY, priority 1993, dated 1995).

Settings: second pKa

With O=C(O)CCC(=O)O [Succinic acid] as the compound, how does the “pKa of acidifying agent” value read?
Its value is 5.57.
